Each structure is given as a SMILES string.

Sequences of proteins named here, by UniProt entry; tags and fusion partners are left off.
UniProt P48039, whole entry: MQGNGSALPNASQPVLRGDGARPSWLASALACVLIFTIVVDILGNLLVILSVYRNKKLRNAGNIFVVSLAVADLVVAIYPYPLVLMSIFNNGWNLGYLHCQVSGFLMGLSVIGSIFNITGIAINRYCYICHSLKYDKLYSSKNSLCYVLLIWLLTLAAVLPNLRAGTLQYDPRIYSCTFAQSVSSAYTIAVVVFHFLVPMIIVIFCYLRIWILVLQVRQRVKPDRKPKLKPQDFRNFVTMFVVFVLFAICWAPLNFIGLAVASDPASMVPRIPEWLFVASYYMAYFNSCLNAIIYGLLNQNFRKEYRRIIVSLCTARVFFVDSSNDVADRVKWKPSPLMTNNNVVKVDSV
UniProt P49286, whole entry: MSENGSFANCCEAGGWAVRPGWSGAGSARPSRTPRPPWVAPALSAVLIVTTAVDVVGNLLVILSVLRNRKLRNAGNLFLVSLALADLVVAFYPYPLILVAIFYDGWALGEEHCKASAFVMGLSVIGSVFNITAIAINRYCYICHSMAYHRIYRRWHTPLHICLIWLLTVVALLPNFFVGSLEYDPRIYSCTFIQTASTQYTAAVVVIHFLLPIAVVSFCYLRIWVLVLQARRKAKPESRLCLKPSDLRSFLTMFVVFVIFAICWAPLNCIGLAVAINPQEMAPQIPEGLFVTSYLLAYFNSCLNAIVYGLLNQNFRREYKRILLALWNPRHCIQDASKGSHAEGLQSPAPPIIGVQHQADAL

Here are results for one compound from PMC9655341 (Molecules, 2022).

For assay [1], the target named is T1, human MT1 receptors (Homo sapiens, UniProt P48039). In words: Intrinsic activity at human MT1 receptors stably transfected in CHO cells. As to conditions: MT1, melatonin = 1.00.
In assay [2] the target is T2, human MT2 receptors (Homo sapiens, UniProt P49286). In words: Intrinsic activity at human MT2 receptors stably transfected in CHO cells. As to conditions: MT2, melatonin = 1.00. The assay is classed as biochemical.
Assay [3] addresses T2, human MT2 receptors. In words: Binding affinity at human MT2 receptors stably transfected in CHO cells, 2-[125I]iodomelatonin.
Assay [4] has as its target T1, human MT1 receptors. Nature of the assay: Binding affinity at human MT1 receptors stably transfected in CHO cells, 2-[125I]iodomelatonin.

For the compound `CC(=O)NCCc1cn(C)c2c(C)c(C)ccc12`, the “MT1 Intrinsic Activity” value in assay [1] was 0.38 ± 0.14. For the same compound, the “MT2 Intrinsic Activity” value in assay [2] is on record as 0.52 ± 0.05. In addition, in assay [3], the “MT2 pKi (Mean ± SD)” value is 6.68 ± 0.04. The “MT1 pKi (Mean ± SD)” value in assay [4] is on record as 6.11 ± 0.15.
